Measurements reported in ChEMBL document CHEMBL1159186 (Bioorg Med Chem Lett, 1996).

By UniProt entry, the sequences of proteins in these tests, tags left out. Where a name states a change or a piece, a line headed by the entry shows the natural chain unless it says otherwise.
UniProt P12931: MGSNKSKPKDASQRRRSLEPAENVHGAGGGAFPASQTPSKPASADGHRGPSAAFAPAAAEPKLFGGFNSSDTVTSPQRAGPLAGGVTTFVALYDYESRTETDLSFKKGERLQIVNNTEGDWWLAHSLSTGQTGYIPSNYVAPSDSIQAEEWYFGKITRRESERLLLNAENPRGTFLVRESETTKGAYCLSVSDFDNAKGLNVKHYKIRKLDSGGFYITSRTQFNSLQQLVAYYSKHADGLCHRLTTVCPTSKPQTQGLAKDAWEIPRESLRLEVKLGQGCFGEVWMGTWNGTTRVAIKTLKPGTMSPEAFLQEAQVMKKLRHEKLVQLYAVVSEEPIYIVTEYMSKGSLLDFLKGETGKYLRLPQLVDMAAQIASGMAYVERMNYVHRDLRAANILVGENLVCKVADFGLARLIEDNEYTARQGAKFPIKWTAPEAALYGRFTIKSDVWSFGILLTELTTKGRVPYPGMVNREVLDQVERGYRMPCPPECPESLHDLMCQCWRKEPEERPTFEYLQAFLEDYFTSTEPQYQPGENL

Target: Proto-oncogene tyrosine-protein kinase Src (Homo sapiens, UniProt P12931)
Assay: Inhibition of tyrosine kinase(c-Src)

Cc1ccc(NC(=O)c2ccccc2)cc1Nc1nccc(-c2cccnc2)n1
IC50: > 100 µM
